From PMC4420714 (Peptides, 2015)

Sequences of proteins named here, by UniProt entry; tags and fusion partners are left off. Residues count along the entry.
UniProt P32241, 31-457, species assumed: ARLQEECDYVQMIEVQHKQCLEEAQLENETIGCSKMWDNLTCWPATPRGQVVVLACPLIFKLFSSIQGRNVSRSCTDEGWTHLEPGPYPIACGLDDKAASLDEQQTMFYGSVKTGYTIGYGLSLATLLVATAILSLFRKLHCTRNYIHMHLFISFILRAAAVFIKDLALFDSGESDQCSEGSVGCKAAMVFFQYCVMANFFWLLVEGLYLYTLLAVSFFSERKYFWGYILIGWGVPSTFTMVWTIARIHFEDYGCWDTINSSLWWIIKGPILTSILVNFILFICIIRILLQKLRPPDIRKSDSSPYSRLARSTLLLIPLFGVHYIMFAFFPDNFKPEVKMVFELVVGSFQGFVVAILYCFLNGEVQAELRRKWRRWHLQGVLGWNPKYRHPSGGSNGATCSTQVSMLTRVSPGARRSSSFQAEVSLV

Experiments:
VPAC1-R [1] = molecular target: T1, VPAC1-R (Homo sapiens, UniProt P32241); experiment: Binding of 125I-VIP to VPAC1-R/PANC-1 cells; conditions: for IC50: read-out: IC50 VPAC1-R, VPAC1-R/PANC-1; for decrease in affinity for VPAC1-R/PANC-1 cells compared to native PACAP38 (or PACAP27, VIP): ratio of binding IC50, analog vs native parent peptide
VPAC1-R [2] = molecular target: T1, VPAC1-R; experiment: Binding of 125I-VIP to T47D breast cancer cells containing native VPAC1-R; conditions: read-out: IC50 VPAC1-R, T47D
VPAC2-R [3] = molecular target: T2, VPAC2-R (Homo sapiens, UniProt P41587); experiment: Binding of 125I-PACAP27 to VPAC2-R/PANC-1 cells; conditions: read-out: IC50 VPAC2-R, VPAC2-R/PANC-1
T2 sequence (P41587 24-438): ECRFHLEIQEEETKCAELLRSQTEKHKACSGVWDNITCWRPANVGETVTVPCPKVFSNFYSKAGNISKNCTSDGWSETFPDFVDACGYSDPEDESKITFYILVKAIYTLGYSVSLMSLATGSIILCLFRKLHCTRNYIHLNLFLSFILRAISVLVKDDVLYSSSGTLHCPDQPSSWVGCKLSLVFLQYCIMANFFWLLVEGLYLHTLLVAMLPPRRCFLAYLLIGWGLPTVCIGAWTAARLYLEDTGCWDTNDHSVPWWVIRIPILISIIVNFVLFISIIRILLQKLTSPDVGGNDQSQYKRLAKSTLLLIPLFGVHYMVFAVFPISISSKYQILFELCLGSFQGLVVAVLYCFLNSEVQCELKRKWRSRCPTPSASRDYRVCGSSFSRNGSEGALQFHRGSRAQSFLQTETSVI

VPAC2-R [4] = molecular target: T2, VPAC2-R; assay type: binding; conditions: read-out: IC50 VPAC2-R, Sup-T1; Sup-T1 cells, 75 pM 125I-Ro 25-1553, 37°C
VPAC1-R [5] = molecular target: T1, VPAC1-R; experiment: [3H]cAMP generation in VPAC1-R/PANC-1 cells; assay type: cell-based; conditions: for EC50: read-out: [3H]cAMP VPAC1-R/PANC-1 EC50; for greater affinity than potency for stimulating cAMP generation, VPAC1-R/PANC-1 cells: EC50 cAMP over binding IC50; for [3H]cAMP VPAC1-R/PANC-1 % max (agonist class): relative to PACAP38, up to 1 µM
VPAC1-R [6] = molecular target: T1, VPAC1-R; experiment: [3H]cAMP generation in T47D cells; assay type: cell-based; conditions: for EC50: read-out: [3H]cAMP T47D EC50; for [3H]cAMP T47D % max (agonist class): relative to PACAP38, up to 1 µM
VPAC2-R [7] = molecular target: T2, VPAC2-R; experiment: [3H]cAMP generation in VPAC2-R/PANC-1 cells; assay type: cell-based; conditions: read-out: [3H]cAMP VPAC2-R/PANC-1 EC50; VPAC2-R/PANC-1 cells
[8] = ref [4],[4],[7],[31]; cited from earlier work
PAC1-R [9] = molecular target: T3, PAC1-R (Homo sapiens, UniProt P41586); experiment: Binding of 125I-PACAP27 to PAC1-R stably transfected NIH 3T3 cells; conditions: for decrease in affinity for PAC1-R cells compared to native PACAP38 (or PACAP27): ratio of binding IC50, analog vs native parent peptide; for IC50: read-out: IC50 PAC1-R; for higher affinity (selectivity) for PAC1-R cells over VPAC2-R/PANC-1 cells: IC50 VPAC2-R/PANC-1 divided by IC50 PAC1-R, binding
T3 sequence (P41586 21-468): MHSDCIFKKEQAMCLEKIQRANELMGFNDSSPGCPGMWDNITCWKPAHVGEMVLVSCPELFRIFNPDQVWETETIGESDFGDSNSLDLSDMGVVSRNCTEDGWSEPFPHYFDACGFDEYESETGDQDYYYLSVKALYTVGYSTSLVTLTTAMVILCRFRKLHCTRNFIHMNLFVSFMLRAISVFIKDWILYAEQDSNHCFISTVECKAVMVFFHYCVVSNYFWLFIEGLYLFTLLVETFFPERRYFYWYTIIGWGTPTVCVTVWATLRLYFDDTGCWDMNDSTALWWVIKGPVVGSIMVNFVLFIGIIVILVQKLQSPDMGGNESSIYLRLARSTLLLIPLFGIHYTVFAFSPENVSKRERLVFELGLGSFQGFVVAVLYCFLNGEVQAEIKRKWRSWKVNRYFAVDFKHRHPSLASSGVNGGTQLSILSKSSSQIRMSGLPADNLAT

PAC1-R [10] = molecular target: T3, PAC1-R; experiment: [3H]cAMP generation in PAC1-R cells; assay type: cell-based; conditions: for higher potency for PAC1-R cells compared to VPAC1-R/PANC-1 cells / higher potency for PAC1-R cells compared to VPAC2-R/PANC-1 cells: cAMP generation EC50 ratio; for EC50: read-out: [3H]cAMP PAC1-R EC50; for greater affinity than potency, PAC1-R cells: EC50 cAMP over binding IC50; for [3H]cAMP PAC1-R % max (agonist class): relative to maximal stimulation by PACAP38, up to 1 µM
PAC1-R [11] = molecular target: T3, PAC1-R; experiment: [3H]Inositol phosphate generation; assay type: cell-based; conditions: PAC1-R cells; for less potent at stimulating [3H]IP (PLC) than cAMP: IP EC50/cAMP EC50; for efficacy for generation of cAMP and [3H]IP: compared with PACAP38; for EC50: read-out: [3H]IP EC50, 60 min 37°C, Fig. 9

Substance | IC50 (VPAC1-R [1]) | IC50 (VPAC1-R [2]) | IC50 (VPAC2-R [4]) | EC50 (VPAC1-R [5]) | EC50 (VPAC1-R [6]) | EC50 (VPAC2-R [7]) | decrease in affinity for PAC1-R cells compared to native PACAP38 (or PACAP27) (PAC1-R [9]) | IC50 (PAC1-R [9]) | decrease in affinity for VPAC1-R/PANC-1 cells compared to native PACAP38 (or PACAP27, VIP) (VPAC1-R [1]) | higher potency for PAC1-R cells compared to VPAC1-R/PANC-1 cells (PAC1-R [10]) | higher potency for PAC1-R cells compared to VPAC2-R/PANC-1 cells (PAC1-R [10]) | EC50 (PAC1-R [10]) | [3H]cAMP T47D % max (agonist class) (VPAC1-R [6]; T47D cells) | EC50 (PAC1-R [10]; PAC1-R cells) | EC50 (VPAC1-R [5]; VPAC1-R/PANC-1 cells) | EC50 (VPAC1-R [6]; T47D cells) | [3H]cAMP VPAC1-R/PANC-1 % max (agonist class) (VPAC1-R [5]; VPAC1-R/PANC-1 cells) | further results
PACAP38 [reference compound] | 1.35 ± 0.04 nM | 1.29 ± 0.05 nM | 6.03 ± 0.3 nM | 0.54 ± 0.05 nM | 3.24 ± 0.19 nM | 1.38 ± 0.1 nM |  |  |  |  |  |  |  |  |  |  |  | IC50 (VPAC2-R [3]): 1 ± 0.11 nM; plasma half-life [8]: 5 to 10 min
[D-Ser^2,Lys(Palmitoyl)^38]PACAP38 [Peptide P13] | 11.5 ± 0.9 nM | 3.9 ± 0.29 nM | 13.2 ± 0.5 nM | 4.07 ± 0.27 nM | 5.25 ± 0.25 nM | 3.47 ± 0.2 nM | 11–30 fold | 7.94 ± 0.48 nM | 2–10 fold | 16–50 fold and 15-to-666 fold | 22–55 fold | 0.15 ± 0.01 nM | pAg (78) |  |  |  |  | [3H]cAMP T47D % max of partial agonist (VPAC1-R [6]; T47D cells, partial agonist maximum): pAg (78) % max
[Iaa^1]PACAP38 [Peptide P42] |  |  | 3.16 ± 0.21 nM |  |  | 5.13 ± 0.42 nM |  |  | 2–10 fold | 6–15 fold | 7-to-15 fold |  |  | 0.4 ± 0.01 nM | 2.63 ± 0.37 nM | 5.75 ± 0.73 nM |  | greater affinity than potency for stimulating cAMP generation, VPAC1-R/PANC-1 cells (VPAC1-R [5]): 1.2–65.2 fold; less potent at stimulating [3H]IP (PLC) than cAMP (PAC1-R [11]): 25 fold; efficacy for generation of cAMP and [3H]IP (PAC1-R [11]): fully efficacious; EC50 (PAC1-R [11]): 19.3 nM
[β-Ala^3,Ala^16,17]PACAP38 [Peptide P21] |  |  | 323 ± 14 nM |  |  | > 1000 nM | > 350 fold |  | 180-to-620 fold | 2-to-5 fold | 2–5 fold |  | No Act | 602 ± 37 nM | > 1000 nM | > 1000 nM | no agonist activity; also recorded: No Act | greater affinity than potency, PAC1-R cells (PAC1-R [10]): 1.2- to 64 fold; [3H]cAMP PAC1-R % max (agonist class) (PAC1-R [10]; PAC1-R cells): Ag (1 µM, 61); greater affinity than potency for stimulating cAMP generation, VPAC1-R/PANC-1 cells (VPAC1-R [5]): 1.2–65.2 fold
[Pip^3,Ala^15,17,Aib^16,28,Lys^34,D-Lys^38]PACAP38 [Peptide P38] |  |  | > 1000 nM |  |  | > 1000 nM | > 1,000 fold |  | > 1,000 fold |  |  |  | No Act | > 1000 nM | > 1000 nM | > 1000 nM | no agonist activity; also recorded: No Act | lower affinity for PAC1-R cells than VPAC2-R/PANC-1 cells (PAC1-R [9]; binding IC50 ratio, VPAC2-R preferring): 2–4 fold; [3H]cAMP PAC1-R % max (agonist class) (PAC1-R [10]; PAC1-R cells): no agonist activity; also recorded: No Act
[Ala^22]PACAP38 [Peptide P17] |  |  | > 1000 nM |  |  | 282 ± 12 nM |  | 3.72 ± 0.12 nM | 11–40 fold |  |  | 0.32 ± 0.11 nM |  |  | 1.07 ± 0.06 nM | 41.7 ± 3.9 nM |  | 
[Iaa^1,D-Ser^2]PACAP38 [Peptide P43] |  |  | 25.7 ± 1.4 nM |  |  | 20.1 ± 1.1 nM | 5–10 fold |  | 11–40 fold | 2-to-5 fold | 12–140 fold |  |  | 0.5 ± 0.01 nM | 2.63 ± 1.8 nM | 56.2 ± 3.9 nM |  | less potent at stimulating [3H]IP (PLC) than cAMP (PAC1-R [11]): 377 fold; efficacy for generation of cAMP and [3H]IP (PAC1-R [11]): fully efficacious; EC50 (PAC1-R [11]): 256 nM
[Hyp^3,Ala^16,17]PACAP38 [Peptide P20] |  |  | 380 ± 15 nM |  |  | > 1000 nM | > 350 fold |  | 180-to-620 fold | 16–50 fold | 22–55 fold |  | No Act | 139 ± 10 nM | > 1000 nM | > 1000 nM | partial agonists; also recorded: pAg (25) | higher affinity (selectivity) for PAC1-R cells over VPAC2-R/PANC-1 cells (PAC1-R [9]): same affinity; greater affinity than potency, PAC1-R cells (PAC1-R [10]): 1.2- to 64 fold; greater affinity than potency for stimulating cAMP generation, VPAC1-R/PANC-1 cells (VPAC1-R [5]): 1.2–65.2 fold; [3H]cAMP VPAC1-R/PANC-1 % max of partial agonist (VPAC1-R [5]; VPAC1-R/PANC-1 cells, partial agonist maximum): pAg (25) % max
[D-Ser^2]PACAP38 [Peptide P16] | 417 ± 19 nM | 170 ± 8 nM | 63.1 ± 1.6 nM | 11 ± 1 nM | 19.9 ± 1.8 nM | 33.1 ± 1.9 nM |  | 7.94 ± 0.5 nM |  |  |  | 2.57 ± 0.07 nM |  |  |  |  |  | IC50 (VPAC2-R [3]): 14.8 ± 0.9 nM
[Lys(palmitoyl)^38]PACAP38 [Peptide P12] | 8.13 ± 0.46 nM | 4.4 ± 0.2 nM | 5.89 ± 0.4 nM | 5.01 ± 0.35 nM | 5.45 ± 0.42 nM | 5.37 ± 0.25 nM | 11–30 fold | 6.31 ± 0.26 nM | 2–10 fold | 16–50 fold | 22–55 fold | 0.21 ± 0.02 nM |  |  |  |  |  | 
[Hyp^3,Aib^16,Ala^17,Lys^34]PACAP38 [Peptide P31] |  |  | 100 ± 4 nM |  |  | 155 ± 11 nM | 100–300 fold |  | 180-to-620 fold | 15-to-666 fold | 103 fold |  | Ag (1 µM, 55) | 1.51 ± 0.1 nM | 155 ± 13 nM | > 1000 nM | Ag (1 µM, 80) | [3H]cAMP T47D % max, agonist activity at 1 µM, still increasing (VPAC1-R [6]; T47D cells, at 1 µM): Ag (1 µM, 55) % max
[Aib^16,28,Ala^17,Lys^34,D-Lys^38]PACAP38 [Peptide P34] |  |  | 7.76 ± 0.34 nM |  |  | 2.63 ± 0.15 nM | 10–30 fold |  | 3–20 fold | 6–15 fold | 7-to-15 fold |  |  | 0.19 ± 0.01 nM | 1.58 ± 0.08 nM | 30.2 ± 1.9 nM |  | 
[Iaa^1,Ala^22]PACAP38 [Peptide P45] |  |  | > 1000 nM |  |  | 550 ± 17 nM | 5–10 fold |  | 11–40 fold | 2-to-5 fold | > 800 fold |  |  | 0.6 ± 0.05 nM | 2.63 ± 0.46 nM | 118 ± 10 nM | Ag (1 µM, 74) | higher affinity (selectivity) for PAC1-R cells over VPAC2-R/PANC-1 cells (PAC1-R [9]): > 400 fold; less potent at stimulating [3H]IP (PLC) than cAMP (PAC1-R [11]): 106 fold; efficacy for generation of cAMP and [3H]IP (PAC1-R [11]): fully efficacious; EC50 (PAC1-R [11]): 140 nM

“And” between values parts separate entries of the source, which are not always exact repeats. Identical values can stand only once. “Also recorded” adds a separate entry of the source. Like-named read-outs stand apart in the source and are kept apart here.
